Source: patent US20080064705A1, “Theophylline-based nitophenylpiperazine derivatives for enhancing aortic smooth muscle relaxation” (KAOHSIUNG MEDICAL UNIVERSITY, priority 2006, published 2008)

By UniProt entry, the sequences of proteins in these tests, tags left out. Where a name states a change or a piece, a line headed by the entry shows the natural chain unless it says otherwise.
UniProt Q14432: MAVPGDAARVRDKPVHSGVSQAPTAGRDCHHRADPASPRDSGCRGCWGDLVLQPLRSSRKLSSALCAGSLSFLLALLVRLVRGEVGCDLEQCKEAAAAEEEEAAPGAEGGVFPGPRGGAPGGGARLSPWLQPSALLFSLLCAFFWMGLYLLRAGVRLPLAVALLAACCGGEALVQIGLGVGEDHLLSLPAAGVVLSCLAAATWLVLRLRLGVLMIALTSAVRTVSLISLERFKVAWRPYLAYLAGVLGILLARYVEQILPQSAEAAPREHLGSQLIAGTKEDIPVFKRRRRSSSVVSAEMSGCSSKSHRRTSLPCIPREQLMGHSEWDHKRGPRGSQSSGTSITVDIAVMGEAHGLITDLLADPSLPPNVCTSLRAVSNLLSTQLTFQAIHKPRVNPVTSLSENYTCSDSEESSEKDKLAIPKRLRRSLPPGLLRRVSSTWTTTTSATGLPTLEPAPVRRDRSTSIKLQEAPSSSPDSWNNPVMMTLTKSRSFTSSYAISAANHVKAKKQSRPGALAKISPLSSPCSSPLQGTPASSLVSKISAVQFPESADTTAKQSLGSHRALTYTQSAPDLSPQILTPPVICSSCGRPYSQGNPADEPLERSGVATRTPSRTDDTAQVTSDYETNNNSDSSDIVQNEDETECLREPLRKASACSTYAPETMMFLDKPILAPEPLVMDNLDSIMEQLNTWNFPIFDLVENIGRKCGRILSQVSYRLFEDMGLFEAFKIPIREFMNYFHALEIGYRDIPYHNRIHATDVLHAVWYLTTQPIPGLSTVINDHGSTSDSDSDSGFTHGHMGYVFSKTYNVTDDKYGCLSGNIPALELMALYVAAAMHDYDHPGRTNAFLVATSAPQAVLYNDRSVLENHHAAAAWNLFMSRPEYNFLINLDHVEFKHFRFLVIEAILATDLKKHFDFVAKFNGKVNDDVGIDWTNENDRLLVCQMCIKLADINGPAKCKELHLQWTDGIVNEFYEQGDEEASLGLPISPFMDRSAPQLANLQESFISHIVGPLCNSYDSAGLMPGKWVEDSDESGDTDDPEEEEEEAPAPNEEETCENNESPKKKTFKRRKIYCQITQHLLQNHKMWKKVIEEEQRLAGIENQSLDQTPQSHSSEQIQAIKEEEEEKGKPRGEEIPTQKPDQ

Biological target: PDE3 (Homo sapiens, UniProt Q14432)
Assay: biochemical
Conditions: read-out: enzyme inhibitory activity for PDE3
Description: PDE activities were determined by the method of Hidaka and Asano (Hidaka H, Asano T., Biochim Biophys Acta., 429, 485-497, 1976). Washed human platelets were used for both PDE3 and PDE5 analyses, and human U937 cells for PDE4. Purified protein containing PDE3, PDE4, or PDE5 enzyme was resuspended in 50 mM Tris-HCl containing 5 mM MgCl2 (pH 7.5). […] After 20 minutes at 37° C., the samples were heated to 100° C. for 2 minutes. Ophiophagis Hannah snake venom (10 mg/mL, […]) was then added and incubated at 37° C. for 10 minutes to convert the 5′-GMP and 5′-AMP to the uncharged nucleosides guanosine and adenosine, respectively. An ion-exchange resin ([…]) was added to bind all unconverted cGMP or cAMP. After centrifuging, the supernatant was removed for determination of radiolabeled guanosine or adenosine by a liquid scintillation counter.

## Cn1c(=O)c2[nH]cnc2n(C)c1=O [theophylline]
  inhibition at 10000 µM: 8 ± 1%
